# Apparent affinities of Ab-91 variants for a coronavirus HR2 peptide

All variants were tested on one target, the spike HR2 peptide PDVDLGDISGINAS (SARS-CoV-2).

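The starting antibody came from a phage panning campaign against this peptide. Library AAYL51 holds single substitutions and randomly drawn double and triple substitutions in the CDRs. Affinity was read by AlphaSeq, a pooled yeast mating assay with surface-displayed partners. Pairs that bind mate more often; barcode pairs of the diploids are counted by sequencing. The ratio of observed to expected reads was calibrated, replicate by replicate, on BCL2-family standards whose Kd was known from biolayer interferometry. Each pool was mated in three replicate cultures.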

The variants keep the light chain, the linker and the frameworks of Ab-91 (scFv order VL, a 15-residue (Gly4Ser)3 linker, VH).
VL: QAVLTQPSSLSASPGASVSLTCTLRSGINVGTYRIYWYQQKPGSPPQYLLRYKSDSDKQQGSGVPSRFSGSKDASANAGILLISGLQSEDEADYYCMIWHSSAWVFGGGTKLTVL
VH: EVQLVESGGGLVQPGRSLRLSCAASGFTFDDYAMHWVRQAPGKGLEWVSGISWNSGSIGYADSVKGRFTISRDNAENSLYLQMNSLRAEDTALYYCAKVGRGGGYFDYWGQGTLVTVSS

Each variant's VH is given in full. Values are apparent Kd, the geometric mean of the replicates that gave a signal; lower means stronger binding. A pair that was not seen in any replicate is written "no signal"; this usually means weak binding, but a binder can also be missed.

VH,apparent Kd,seen in,empty controls
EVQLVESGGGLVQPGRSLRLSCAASGFTFEDYAMHWVRQAPGKGLEWVSGISFNSGDIGYADSVKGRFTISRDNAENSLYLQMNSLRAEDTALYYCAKVGRGGGYFDYWGQGTLVTVSS,11 nM,3 of 3,0 of 9
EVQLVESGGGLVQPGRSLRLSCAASGFTIDDYAMHWVRQAPGKGLEWVSGISWNSGSIGYADSVKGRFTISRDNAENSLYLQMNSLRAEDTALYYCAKYGRGGGMFDYWGQGTLVTVSS,15 nM,3 of 3,5 of 9
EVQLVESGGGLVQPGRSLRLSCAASGFTFGDYAMHWVRQAPGKGLEWVSDISWNSGSIGYADSVKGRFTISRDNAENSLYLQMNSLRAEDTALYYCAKVGRGCGYFDYWGQGTLVTVSS,no signal,0 of 3,1 of 9
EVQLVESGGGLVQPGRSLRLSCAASGFTFDDYAMHWVRQAPGKGLEWVSGISWNSGSIGNAMSVKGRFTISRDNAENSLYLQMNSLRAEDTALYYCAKVGRCGGYFDYWGQGTLVTVSS,420 µM,2 of 3,4 of 9
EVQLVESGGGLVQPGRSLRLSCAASGFTFDDYAMHWVRQAPGKGLEWVSGISWNSGSIGYFDSVKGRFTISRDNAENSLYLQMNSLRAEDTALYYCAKVGRGGWYFDYWGQGTLVTVSS,no signal,0 of 3,0 of 9
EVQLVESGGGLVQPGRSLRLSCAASGFTFDDYAMHWVRQAPGKGLEWVSGISWNSGSIGYAHSVKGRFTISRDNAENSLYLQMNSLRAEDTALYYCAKYGRGCGYFDYWGQGTLVTVSS,22 µM,2 of 3,3 of 9
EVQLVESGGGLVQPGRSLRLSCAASGFTFDDYAMHWVRQAPGKGLEWVSGSSWNSGSIGYADSVKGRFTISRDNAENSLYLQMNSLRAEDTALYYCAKVGGGGGYFDYWGQGTLVTVSS,no signal,0 of 3,0 of 9
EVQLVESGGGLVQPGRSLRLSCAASGFTFDAYAMTWVRQAPGKGLEWVSGISWNSGSIGYADSVKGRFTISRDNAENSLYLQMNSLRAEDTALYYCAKVGRGGGNFDYWGQGTLVTVSS,no signal,0 of 3,2 of 9
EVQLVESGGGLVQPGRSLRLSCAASGFTFDDYAMHWVRQAPGKGLEWVSGISWNSGSITYATSVKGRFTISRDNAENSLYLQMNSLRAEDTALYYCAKVGRGGGYFDYWGQGTLVTVSS,270 µM,1 of 3,1 of 9
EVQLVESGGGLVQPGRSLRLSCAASGFTFDDYAMHWVRQAPGKGLEWVSGISWGSGSIGYATGVKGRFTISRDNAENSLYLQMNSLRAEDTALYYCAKVGRGGGYFDYWGQGTLVTVSS,36 µM,3 of 3,7 of 9
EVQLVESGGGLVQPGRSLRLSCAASGFTFDDYAMHWVRQAPGKGLEWVSGISWNSGSIGYWDRVKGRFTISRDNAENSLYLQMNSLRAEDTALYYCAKVGRGGGYFDYWGQGTLVTVSS,no signal,0 of 3,0 of 9
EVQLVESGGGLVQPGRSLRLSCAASTFTFDDYVMHWVRQAPGKGLEWVSGISWNSGSIGYADSVKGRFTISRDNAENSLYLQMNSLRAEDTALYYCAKVGRDGGYFDYWGQGTLVTVSS,16 µM,1 of 3,4 of 9
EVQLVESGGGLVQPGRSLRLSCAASGFNFDDYAMHWVRQAPGKGLEWVSGISWNSGSIGYADSYKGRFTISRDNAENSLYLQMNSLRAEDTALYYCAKVGRGWGYFDYWGQGTLVTVSS,no signal,0 of 3,1 of 9
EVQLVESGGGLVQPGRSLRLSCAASDFTFDVYAMHWVRQAPGKGLEWVSGISWNSGSIGYADSVEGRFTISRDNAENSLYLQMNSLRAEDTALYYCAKVGRGGGYFDYWGQGTLVTVSS,no signal,0 of 3,2 of 9
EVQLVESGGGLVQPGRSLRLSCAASGFTFTDYAMHWVRQAPGKGLEWVSGISWNSGSIGIAQSVKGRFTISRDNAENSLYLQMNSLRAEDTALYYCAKVGRGGGYFDYWGQGTLVTVSS,no signal,0 of 3,0 of 9
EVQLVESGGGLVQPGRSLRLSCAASGFTSDDYAMHWVRQAPGKGLEWVSGISWNSGSIGFADSVKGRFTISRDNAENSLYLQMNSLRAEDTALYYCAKVGRGGNYFDYWGQGTLVTVSS,130 µM,2 of 3,2 of 9
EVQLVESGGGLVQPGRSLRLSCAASGFTFDDYACHWVRQAPGKGLEWVSGISWNSGSIGYADSAKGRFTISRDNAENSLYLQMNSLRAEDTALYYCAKVGRGGGYFLYWGQGTLVTVSS,no signal,0 of 3,0 of 9
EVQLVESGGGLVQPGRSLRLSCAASGFTWDDWAMHWVRQAPGKGLEWVSGISWNSGSIGYRDSVKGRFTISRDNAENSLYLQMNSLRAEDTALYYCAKVGRGGGYFDYWGQGTLVTVSS,57 µM,1 of 3,0 of 9
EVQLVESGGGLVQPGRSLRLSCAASGFTFCDYTYHWVRQAPGKGLEWVSGISWNSGSIGYADSVKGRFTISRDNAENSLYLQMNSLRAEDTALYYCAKVGRGGGYFDYWGQGTLVTVSS,no signal,0 of 3,2 of 9
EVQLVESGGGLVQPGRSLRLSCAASGFTFDDYAMHWVRQAPGKGLEWVSGIAMNSGSIGYADSVKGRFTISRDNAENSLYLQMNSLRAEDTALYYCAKVGRGGGYTDYWGQGTLVTVSS,77 µM,2 of 3,3 of 9
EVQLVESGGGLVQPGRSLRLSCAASGFTFDDHAMHWVRQAPGKGLEWVSGISWNSGSIGYADSVKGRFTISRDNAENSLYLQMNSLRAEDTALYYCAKVGHGKGYFDYWGQGTLVTVSS,540 µM,1 of 3,7 of 9
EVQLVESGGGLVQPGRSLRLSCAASGFTFDDYAMHWVRQAPGKGLEWVSGISWNCGSEGYAKSVKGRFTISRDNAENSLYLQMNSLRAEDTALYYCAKVGRGGGYFDYWGQGTLVTVSS,no signal,0 of 3,0 of 9

Top 2 of the variants detected in all replicates, tightest first:

VH,apparent Kd,seen in,empty controls
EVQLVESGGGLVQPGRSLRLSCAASGFTFEDYAMHWVRQAPGKGLEWVSGISFNSGDIGYADSVKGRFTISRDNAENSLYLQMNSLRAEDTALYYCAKVGRGGGYFDYWGQGTLVTVSS,11 nM,3 of 3,0 of 9
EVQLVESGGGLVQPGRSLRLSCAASGFTIDDYAMHWVRQAPGKGLEWVSGISWNSGSIGYADSVKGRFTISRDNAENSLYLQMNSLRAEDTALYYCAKYGRGGGMFDYWGQGTLVTVSS,15 nM,3 of 3,5 of 9

Three control strains display no target. For library AAYL51, 21% of the pairings with them gave a signal, with a median of 34 µM and one signal in twenty below 1.8 µM, so weak values seen in few replicates may be background. Also given: how often the same scFv was detected with the empty control strains.

Source: Engelhart et al. 2022 (doi:10.1038/s41597-022-01779-4), MIT Lincoln Laboratory and A-Alpha Bio; data file from the FLAb repository.